{"source": "patent US11065253B2", "about": "“Arylquinazolines” (Merck Patent GmbH, priority 2013, dated 2021)", "system": "phospho-serine 2056 DNA-PK in HCT116 cells", "experiment": "DNA-PK phosphorylation at serine 2056 (cellular), ELISA in bleomycin-treated HCT116 cells", "assay_type": "cell-based", "settings": "class symbols A-D, read-out: IC50 pDNA-PK", "procedure": "HCT116 cells were cultivated at 37° C. and 10% CO2 in MEM alpha medium with 10% of foetal calf serum and 2 mM glutamine. The cells were detached from the base of the culture vessels with the aid of trypsin/EDTA, centrifuged off in centrifuge tubes, taken up in fresh medium, and the cell density was determined. 100,000 cells were sown in 1 ml of culture medium per cavity of a 24-well cell culture plate and cultivated overnight. Next day, 10 μM bleomycin (DNA intercalator and inductor of DNA double-strand breaks) and test substances in fresh culture medium were added to the cells, and these were cultivated for a further six hours. […] The 96-well ELISA plates were subsequently treated with a detection antibody (Abcam ab79444: total DNA-PK) and a streptavidin-HRP conjugate. The development of the enzymatic reaction was carried out with the aid of a chemiluminescent reagent, the chemiluminescence was measured with the aid of a Mithras LB940. The signals with the phospho-DNA-PK-specific antibody were standardised to the signal with the antibody against the total protein DNA-PKc. […] The DMSO control was used as blank.", "note": "pIC50: −log10 of the molar value.", "data": [{"smiles": "COc1ccc(C(O)c2cc(-c3ncnc4cc(N5CCOCC5)ccc34)c(F)cc2F)nn1", "note": "(stereo not shown) [Example 130, [2,4-Difluoro-5-(7-morpholin-4-yl-quinazolin-4-yl)-phenyl]-(6-methoxy-pyridazin-3-yl)-methanol]", "values": [{"measurement": "pIC50", "result": "> 6.30"}]}]}
